This is an account of results in ChEMBL document CHEMBL4321856.

Chains of the proteins cited; added tags and fusions are not shown.
UniProt P33535, whole entry: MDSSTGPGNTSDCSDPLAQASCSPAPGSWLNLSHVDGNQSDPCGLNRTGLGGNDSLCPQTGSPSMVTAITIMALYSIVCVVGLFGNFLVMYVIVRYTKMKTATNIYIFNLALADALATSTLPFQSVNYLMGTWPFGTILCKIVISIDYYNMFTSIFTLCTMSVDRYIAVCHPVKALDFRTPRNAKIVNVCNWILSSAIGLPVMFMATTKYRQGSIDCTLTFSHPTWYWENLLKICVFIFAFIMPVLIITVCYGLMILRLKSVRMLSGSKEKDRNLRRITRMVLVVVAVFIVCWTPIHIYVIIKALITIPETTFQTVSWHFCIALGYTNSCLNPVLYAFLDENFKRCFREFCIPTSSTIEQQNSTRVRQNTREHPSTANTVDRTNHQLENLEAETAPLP
UniProt P33533, whole entry: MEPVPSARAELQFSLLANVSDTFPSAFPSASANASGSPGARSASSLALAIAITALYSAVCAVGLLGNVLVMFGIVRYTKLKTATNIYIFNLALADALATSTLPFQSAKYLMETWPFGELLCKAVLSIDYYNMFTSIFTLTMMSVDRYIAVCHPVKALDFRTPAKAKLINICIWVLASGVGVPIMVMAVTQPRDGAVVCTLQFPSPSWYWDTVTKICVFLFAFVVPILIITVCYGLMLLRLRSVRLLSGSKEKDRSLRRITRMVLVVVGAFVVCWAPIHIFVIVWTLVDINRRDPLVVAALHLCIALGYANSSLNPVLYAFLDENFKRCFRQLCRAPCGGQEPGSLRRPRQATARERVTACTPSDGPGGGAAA
UniProt P41145, whole entry: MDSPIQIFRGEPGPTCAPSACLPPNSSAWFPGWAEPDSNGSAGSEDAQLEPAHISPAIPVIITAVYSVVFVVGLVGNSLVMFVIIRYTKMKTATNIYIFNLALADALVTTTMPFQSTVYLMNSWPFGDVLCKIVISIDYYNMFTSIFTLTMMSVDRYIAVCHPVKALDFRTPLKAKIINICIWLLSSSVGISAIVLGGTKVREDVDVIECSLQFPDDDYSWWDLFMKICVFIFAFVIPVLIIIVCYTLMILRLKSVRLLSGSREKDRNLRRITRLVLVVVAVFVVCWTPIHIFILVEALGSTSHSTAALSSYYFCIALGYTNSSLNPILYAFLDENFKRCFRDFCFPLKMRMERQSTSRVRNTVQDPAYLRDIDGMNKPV

For assay [1], the target named is T1, Mu-type opioid receptor (Rattus norvegicus, UniProt P33535). The experiment in a line: Displacement of [3H]DAMGO from rat MOR expressed in CHO cell membranes incubated for 30 mins by liquid scintillation counting. (In general: Displacement assays read how much labelled ligand stays bound in the presence of the test substance.)
Assay [2] deals with T2, Delta-type opioid receptor (Rattus norvegicus, UniProt P33533). The experiment in a line: Displacement of [3H]DPDPE from rat DOR expressed in CHO cell membranes incubated for 30 mins by liquid scintillation counting.
In assay [3] the target is T3, Kappa-type opioid receptor (Homo sapiens, UniProt P41145). The experiment in a line: Displacement of [3H]U69593 from human KOR expressed in CHO cell membranes incubated for 30 mins by liquid scintillation counting.
For assay [4], the target named is T3, Kappa-type opioid receptor. The experiment in a line: Agonist activity at human KOR expressed in CHO cell membranes assessed as stimulation of [35S]GTPgammaS binding incubated for 1 hr by liquid scintillation counting. (Binding of GTPγS marks nucleotide exchange on a G protein.)
Assay [5] addresses T2, Delta-type opioid receptor. The experiment in a line: Agonist activity at rat DOR expressed in CHO cell membranes assessed as stimulation of [35S]GTPgammaS binding incubated for 1 hr by liquid scintillation counting.
Assay [6] concerns the target T1, Mu-type opioid receptor. The experiment in a line: Agonist activity at rat MOR expressed in CHO cell membranes assessed as stimulation of [35S]GTPgammaS binding incubated for 1 hr by liquid scintillation counting.

A word on the Ki: it is the dissociation constant of the complex between target and ligand, obtained from inhibition or displacement. High values mean weaker binding, low ones tighter binding. For `COc1ccc2c3c1O[C@H]1[C@@]4(OC)CC[C@@]5(C[C@@H]4c4ccc(N6CCCCC6)cc4)[C@@H](C2)N(CC2CC2)CC[C@]315`, the inhibition constant Ki in assay [1] came out at 9.6 nM; in assay [2], 1030 nM; in assay [3], 40.3 nM.

Broadly, the EC50 is the concentration needed to bring the measured effect to its halfway point. In the case of `COc1ccc2c3c1O[C@H]1[C@@]4(OC)CC[C@@]5(C[C@@H]4c4ccc(NC(C)=O)cc4)[C@@H](C2)N(CC2CC2)CC[C@]315`, the inhibition constant (Ki) was 8.6 nM in assay [1], 216 nM in assay [2] and 7.8 nM in assay [3]. In addition, the EC50 in assay [4] turned out to be 20.7 nM.

For `COc1ccc2c3c1O[C@H]1[C@@]4(OC)CC[C@@]5(C[C@@H]4c4ccc(NC(=O)Cc6ccccc6)cc4)[C@@H](C2)N(CC2CC2)CC[C@]315`, the inhibition constant (Ki) in assay [1] was 26 nM; in assay [2] it was 132 nM; in assay [3], 21.4 nM. For the same molecule, the EC50 in assay [5] is 132 nM.

`COc1ccc2c3c1O[C@H]1[C@@]4(OC)C=C[C@@]5(C[C@@H]4c4ccccc4)[C@@H](C2)N(C)CC[C@]315`: the affinity in assay [3] corresponds to a Ki of 7890 nM. For the same molecule, in assay [4], the EC50 was determined as 175 nM.

Consider `COc1ccc2c3c1O[C@H]1[C@@]4(OC)CC[C@@]5(C[C@@H]4c4ccc(NCc6ccccc6)cc4)[C@@H](C2)N(CC2CC2)CC[C@]315`, for which the inhibition constant (Ki) was 319 nM in assay [1], 626 nM in assay [2] and 17.2 nM in assay [3]. The 50% effective concentration (EC50) in assay [6] amounted to 1430 nM; in assay [5], 78.9 nM.

As to `COc1ccc2c3c1O[C@H]1[C@@]4(OC)CC[C@@]5(C[C@@H]4c4ccc(NC=O)cc4)[C@@H](C2)N(CC2CC2)CC[C@]315`, the figures for the inhibition constant Ki in assay [1], in assay [2] and in assay [3] were 18.6 nM, 132 nM and 4.3 nM, respectively.

Consider `COc1ccc2c3c1O[C@H]1[C@@]4(OC)CC[C@@]5(C[C@@H]4c4ccc(NCCN(C)C)cc4)[C@@H](C2)N(CC2CC2)CC[C@]315`, for which the inhibition constant Ki in assay [1] was 15.9 nM; in assay [2] it was 138 nM; in assay [3] it was 13 nM.
